Results: PMC10227065, “Structures of Tetrahymena thermophila respiratory megacomplexes on the tubular mitochondrial cristae” (Nature Communications, 2023)

The chains behind the UniProt entries cited, without tags or fusion partners. Where a name states a change or a piece, a line headed by the entry shows the natural chain unless it says otherwise.
UniProt Q950Y4: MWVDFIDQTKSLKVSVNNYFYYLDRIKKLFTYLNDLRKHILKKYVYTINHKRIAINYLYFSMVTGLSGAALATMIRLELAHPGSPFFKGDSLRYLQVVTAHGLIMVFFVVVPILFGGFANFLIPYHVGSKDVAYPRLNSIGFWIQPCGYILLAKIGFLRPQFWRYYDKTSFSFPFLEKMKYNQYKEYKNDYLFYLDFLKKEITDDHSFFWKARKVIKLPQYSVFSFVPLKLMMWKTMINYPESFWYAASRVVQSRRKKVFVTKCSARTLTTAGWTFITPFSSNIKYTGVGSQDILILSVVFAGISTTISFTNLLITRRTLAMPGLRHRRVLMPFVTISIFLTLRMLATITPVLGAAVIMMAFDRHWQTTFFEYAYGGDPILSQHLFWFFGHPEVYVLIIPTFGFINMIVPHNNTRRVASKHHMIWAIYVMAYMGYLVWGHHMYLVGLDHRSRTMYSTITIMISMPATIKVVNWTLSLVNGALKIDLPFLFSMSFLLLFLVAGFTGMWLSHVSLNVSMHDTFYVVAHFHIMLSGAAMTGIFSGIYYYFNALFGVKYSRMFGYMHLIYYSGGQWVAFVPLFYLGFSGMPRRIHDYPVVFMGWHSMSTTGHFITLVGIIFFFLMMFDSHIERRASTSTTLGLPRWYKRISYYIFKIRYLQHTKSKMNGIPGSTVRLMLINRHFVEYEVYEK

Target: Tt-CIV2 (Tetrahymena thermophila, UniProt Q950Y4)
Experiment: cyt c oxidation, […] nm
Conditions: 100 mM NaN3; NADH (500 uM) or succinate (5 mM), 50 uM decylubiquinone, 100 uM Tt-cyt c, 10 nM megacomplex, pH 7.4, 0.1% digitonin, room temperature

[N-]=[N+]=N
cyt c oxidation, 550 nm: sodium azide could not inhibit cyt c reduction by Tt-CIII2 but can inhibit its oxidation
